ChEMBL document CHEMBL3734693, “Discovery of potent, selective, and orally bioavailable inhibitors of interleukin-1 receptor-associate kinase-4” (Bioorg Med Chem Lett, 2015)

Species: Homo sapiens
Test: Ratio of Ki for IRAK-1 (unknown origin) to Ki for recombinant full length IRAK-4 (unknown origin)

**Q.** For `O=C(Nc1nc2cc(CN3CCCCC3)ccc2n1-c1ccccc1)c1cccc([N+](=O)[O-])c1`, which Ratio Ki is on record?
**A.** 46

**Q.** For `O=C(Nc1nc2cc(CN3CCCCC3)ccc2n1-c1ccc(CCO)cc1)c1cccc(C(F)(F)F)c1`, which Ratio Ki is on record?
**A.** 9

**Q.** `O=C(Nc1nc2cc(CN3CCCCC3)ccc2n1[C@H]1CC[C@@H](CO)CC1)c1cccc(C(F)(F)F)c1` was tested. Which Ratio Ki did it give?
**A.** 171

**Q.** `O=C(Nc1nc2cc(CN3CCCCC3)ccc2n1-c1ccccc1)c1cccc(C(F)(F)F)c1` was tested. Which Ratio Ki did it give?
**A.** 217

Species: Homo sapiens
Test: Ratio of Ki for TAK1 (unknown origin) to Ki for recombinant full length IRAK-4 (unknown origin)

**Q.** With `O=C(Nc1nc2cc(CN3CCCCC3)ccc2n1-c1ccccc1)c1cccc([N+](=O)[O-])c1` as the compound, how does the Ratio Ki read?
**A.** 98

**Q.** `O=C(Nc1nc2cc(CN3CCCCC3)ccc2n1-c1ccc(CCO)cc1)c1cccc(C(F)(F)F)c1` was tested. Which Ratio Ki did it give?
**A.** 538

**Q.** How did the Ratio Ki turn out when `CC(C)(C)C(=O)Nc1ccc2c(c1)nc(NC(=O)c1cccc(C(F)(F)F)c1)n2[C@H]1CC[C@@H](CO)CC1` was run?
**A.** 7350

**Q.** How did the Ratio Ki turn out when `O=C(Nc1nc2ccc(CO)cc2n1[C@H]1CC[C@@H](CO)CC1)c1cccc(C(F)(F)F)c1` was run?
**A.** 2710

**Q.** With `O=C(Nc1nc2cc(CN3CCCCC3)ccc2n1[C@H]1CC[C@@H](CO)CC1)c1cccc(C(F)(F)F)c1` as the compound, how does the Ratio Ki read?
**A.** 310

**Q.** For `O=C(Nc1nc2cc(CN3CCCCC3)ccc2n1-c1ccccc1)c1cccc(C(F)(F)F)c1`, which Ratio Ki is on record?
**A.** 892
